The text below walks through data of ChEMBL document CHEMBL2163249, “Exploration of natural compounds as sources of new bifunctional scaffolds targeting cholinesterases and beta amyloid aggregation: the case of chelerythrine” (Bioorg Med Chem, 2012).

A short description of the test: Selectivity ratio of IC50 for human BChE to IC50 for horse BChE.

On to `COc1cc2c3cc1Oc1c(OC)c(OC)cc4c1[C@@H](Cc1ccc(OC(=O)c5ccc([N+](=O)[O-])cc5)c(c1)Oc1ccc(cc1)C[C@@H]3N(C)CC2)N(C)CC4` [E6 BERBAMINE], for which the Ratio IC50 came to 2.

For `C[C@@H]1CC[C@H]2[C@H](C)[C@H]3CC[C@@]4(O)[C@@H]5CC(=O)[C@H]6CC(=O)CC[C@]6(C)[C@H]5C[C@H]4[C@@H]3CN2C1` [SEVEDINDIONE], the Ratio IC50 came out at 10.
